Measured values as given in patent US11168079B2, “Alkene compounds as farnesoid x receptor modulators” (BRISTOL-MYERS SQUIBB COMPANY, priority 2017, dated 2021).

By UniProt entry, the sequences of proteins in these tests, tags left out. Residues count along the entry.
UniProt Q96RI1, 262-486 limits assumed: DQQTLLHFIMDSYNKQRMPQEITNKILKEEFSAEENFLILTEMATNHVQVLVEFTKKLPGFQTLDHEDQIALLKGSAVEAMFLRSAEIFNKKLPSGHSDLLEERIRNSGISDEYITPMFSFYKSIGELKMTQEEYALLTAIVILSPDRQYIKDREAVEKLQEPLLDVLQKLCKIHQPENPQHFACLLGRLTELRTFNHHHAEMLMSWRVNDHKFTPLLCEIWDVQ

Target: human FXR (Homo sapiens, UniProt Q96RI1)
Assay: transient human FXR/Gal4-luciferase reporter assay (HLE GAL-FXR)
Details: read-out: FXR EC50; Gal4-hFXR fusion reporter, HEK293 cells; Table 1

Row | Structure (SMILES) | EC50
1 | O=C(O)c1cc(C(F)(F)F)c2cc(N3CCC(/C=C/c4c(-c5cccnc5C(F)(F)F)noc4C4CC4)CC3)ccc2n1 | 21 nM
2 | [2H]C([2H])([2H])Oc1cc(C(=O)O)nc2ccc(N3CC(/C=C/c4c(-c5ccccc5C(F)(F)F)noc4C4CC4)C3)cc12 | 29 nM
3 | O=C(O)c1cc2ccc(N3CCC(/C=C/c4c(-c5ccccc5C(F)(F)F)noc4C4CC4)CC3)cc2cn1 | 74 nM
4 | COc1cc(C(=O)O)nc2ccc(N3CC4C(/C=C/c5c(-c6cccnc6C(F)(F)F)noc5C5CC5)C4C3)nc12 (stereo not drawn) | 1890 nM
5 | O=C(O)c1cc(-c2ccc(N3CC(/C=C/c4c(-c5ccccc5C(F)(F)F)noc4C4CC4)C3)cn2)cc(C(F)(F)F)c1 | 4 nM
6 | O=C(O)c1nn(CC2CC2)c2cc(N3CC4C(/C=C/c5c(-c6c(Cl)cccc6Cl)noc5C5CC5)C4C3)ccc12 (stereo not drawn) | 18 nM
